Test: physchem

Work on Cc1cc(C(C)(C)C)cc(C)c1CC1=NCCN1 [XYLOMETAZOLINE] yielded a pKa of 10.2.

— ChEMBL document CHEMBL1140694, “Identification of new functional inhibitors of acid sphingomyelinase using a structure-property-activity relation model” (J Med Chem, 2008)
